## Binding of CDR-mutated scFvs to a peptide of the spike HR2 region

Source: Li et al. 2023 (doi:10.1038/s41467-023-39022-2), MIT Lincoln Laboratory and A-Alpha Bio; data file from the FLAb repository.

Target peptide (SARS-CoV-2 spike, HR2 region): PDVDLGDISGINAS

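Phage display of a naive human antibody library on the peptide gave the parent. This is the validation round: designs drawn from the data on random variants, tested in the same kind of assay. Several design methods are mixed in this list. The assay is AlphaSeq: two haploid yeast populations carry antibody and antigen on their surface. Pairs that bind mate more often; barcode pairs of the diploids are counted by sequencing. Each replicate has its own calibration line, from reference interactions of the BCL2 family. Each pool was mated in six replicate cultures.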

Each scFv is VH, the linker GGGGSGGGGSGGGGS, VL, as in the parent Ab-14, and differs from it in the CDRs of the light chain only.
VH: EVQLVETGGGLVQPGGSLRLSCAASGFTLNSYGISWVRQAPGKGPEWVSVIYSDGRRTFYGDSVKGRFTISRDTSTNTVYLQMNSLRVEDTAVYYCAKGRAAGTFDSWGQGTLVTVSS
VL: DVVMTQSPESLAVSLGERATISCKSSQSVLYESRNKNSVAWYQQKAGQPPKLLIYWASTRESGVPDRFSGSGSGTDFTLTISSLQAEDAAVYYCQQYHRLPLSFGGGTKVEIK

Each variant is given by its three light chain CDRs, as the data file delimits them; those of the parent are KSSQSVLYESRNKNSVA, WASTRES, QQYHRLPLS.
Numbers give log10(Kd / nM), so 0 is 1 nM and 3 is 1 µM. Smaller is tighter.
The mean shown is taken over the replicates in which the pair was detected.
Where no diploid with the target was found in any replicate, the entry reads "nd": below detection, most likely a poor binder, though not proof of it.
The parent sequence was in this pool as ten entries: three were never detected, three once, and four in most replicates, with averages from 0.34 to 2.37.

| CDR-L1 | CDR-L2 | CDR-L3 | mean log10 Kd (nM) | detected | control signals |
|---|---|---|---|---|---|
| TISTSALYESTNKNSVA | ELSTRGS | QQYERLPLS | 0.75 | 6/6 | 2/18 |
| KLSQSDLYESRNKNSVA | EASTRLS | QQYHRLPLS | -0.15 | 6/6 | 2/18 |
| KLQQSCLYESRMPNSVA | NASTRYS | QQYHRLPLS | 0.09 | 6/6 | 2/18 |
| NITESMYFQSRNKNNIA | EMSTRER | QHYHRLPLS | 0.34 | 6/6 | 2/18 |
| KVSQSWLMESRNKNSVA | EASTRCS | QQYHRLPLS | -0.10 | 6/6 | 4/18 |
| KLQQFAEYESRWKNSVA | HASTRLS | QQYHRLPLS | 0.87 | 6/6 | 2/18 |
| YLFNQRSYGDADQRNIA | NGRMRED | QQYARLPLT | -0.25 | 6/6 | 0/18 |
| KLSQSVRMESFYKNSVA | ENSTREA | QDYDRLPLS | 3.25 | 1/6 | 0/18 |
| KQSQSELYESVNKNSVA | DASTRES | QQYHRLPLS | -0.03 | 6/6 | 0/18 |
| KSSCSVLYDSTNFNSVA | WASTRES | QQYHRLPLS | nd | 0/6 | 0/18 |
| KYAFSDLNESRNKNSVA | EASTRES | QQYHRLPLS | 0.11 | 6/6 | 1/18 |
| KSSQSVETESRNKNSVA | WASTRES | QQYLRLLLS | 1.01 | 5/6 | 0/18 |
| HISQSVGMTSFNKNSVA | ENSTREE | QQYDRLPLS | 2.40 | 6/6 | 2/18 |
| TLSQTTDLESVHKNSIA | DLMTRES | QQYHRLPLS | 0.08 | 6/6 | 1/18 |
| KLSGSQLYESRNKNSVA | QASTRES | QQYHRLPLS | -0.48 | 6/6 | 0/18 |
| HISQMHFLESKNKNNVA | EESTRED | QSYFRLPLS | 0.02 | 6/6 | 1/18 |
| KSSHSVLNESRNANSVA | WGSTRES | QTYHCLPLS | 2.67 | 4/6 | 2/18 |
| KSSYSVLYESRNKNSVA | GASHRES | QNYHRLPLS | 2.10 | 5/6 | 0/18 |
| KFSPSVLYESRNKNSVA | NASTRES | QQYHRLPLS | 1.19 | 6/6 | 0/18 |
| HIGLSTMLEETVRNSVA | NNSTREK | QQYDRLPLS | 0.98 | 6/6 | 2/18 |
| HISMMVGTKGYNKNSVA | QAETRVD | QQYHRLPLS | 0.56 | 6/6 | 1/18 |
| KISQAVNYLQRVMNSVA | DNSTRES | QQYFRLPLS | 0.22 | 6/6 | 0/18 |
| KMSPSELYQDRNKNAVA | QASQRES | QQYHRLPLS | -0.30 | 6/6 | 1/18 |
| KSSDSYLYESRNTNSVA | EASTRES | QQYHRLPLS | 0.94 | 6/6 | 0/18 |
| KSSQSVLYESRNKKSVA | WASTRES | QQYHRLPLS | 1.93 | 2/6 | 0/18 |
| KLSTSVLYESRNKNSVA | EASTRES | QQYHRLPLS | 0.33 | 6/6 | 3/18 |
| KSSASYLEESRNKNSVA | EASTRES | QQYHRLPLS | -0.34 | 6/6 | 0/18 |
| MISNVMNTLTRQGNNVA | DLTEREK | QQYFRLPLS | 0.38 | 6/6 | 1/18 |
| KLKIEVYDNQQLRNSIA | ENELRAM | QQYLSLPLS | 0.83 | 6/6 | 0/18 |
| KVSISEPYEERNKNSVA | NASQRMS | QQYHRLPLS | -0.26 | 6/6 | 2/18 |
| KLQGSFMMLSRNDNSVA | DASTRES | QQYHRLPLS | -0.12 | 6/6 | 1/18 |
| KLPQEDWYQSRMKNSVA | DASTRES | QQYHRLPLS | -0.27 | 6/6 | 0/18 |
| KSSISYLYESMNKNSVA | YGSTRES | QQYHRLPLS | 0.87 | 6/6 | 1/18 |
| MIGDTGLHDSRMQNSVA | NNSTREA | QQYHRLPLS | 1.42 | 6/6 | 1/18 |
| TISQLMLYETRNKNNVA | GTSTRES | QCYHRLPLS | 0.06 | 6/6 | 2/18 |
| HISQSFMIESVWRNNVA | HQSTREQ | QQYDRLPFS | 1.08 | 6/6 | 1/18 |
| HSSQSVLYESRNKNSVA | YASVRES | QQYHRLPLS | 1.47 | 5/6 | 0/18 |
| KLSQSDGYESRNKNSVA | NASTRSH | QQYHRLPLS | 0.14 | 6/6 | 0/18 |
| KFMQSVLYESRNKNSVA | WASTRES | QQYHRLPLS | 1.31 | 6/6 | 1/18 |
| QINMEMHHDLDDEQNVA | DAMTEVK | QQYGRLPLS | 2.55 | 3/6 | 1/18 |
| KSSQSVMYESRNKNSVA | AASTRES | QQYHRDPLS | 2.13 | 6/6 | 0/18 |
| MLDQMDGQMGGNTNNIA | DVVEHRI | QQYHRLPLS | 1.10 | 6/6 | 0/18 |
| KCSQEVLYEAANHNSVA | WASTREQ | QQYHRLPLS | 1.04 | 5/6 | 0/18 |
| KLQQSVEYEARNQNSVA | SASYRLD | QQYHRLPLS | 0.16 | 6/6 | 4/18 |
| KSSQSVLYESRNKNSLA | YASTRES | QQYHRLPLS | 1.14 | 1/6 | 0/18 |
| HLGWATMLEETVRNSVA | NNSTREE | QQYDRLPLS | 3.00 | 1/6 | 0/18 |
| KISQLVNFLGKGKNSVA | QMSTRES | QQYDRLPLS | 0.92 | 6/6 | 2/18 |
| NMKVGLNFEDINHQAIA | SVDEREK | QQYHRLPLQ | 0.87 | 6/6 | 0/18 |
| TLLYGVTEAAKPGKAIA | ENEERAQ | QQYFRLPLS | 0.81 | 6/6 | 1/18 |

Repeated from above, the 7 best binders with a signal in all replicates:

CDR-L1,CDR-L2,CDR-L3,mean log10 Kd (nM),detected,control signals
KLSGSQLYESRNKNSVA,QASTRES,QQYHRLPLS,-0.48,6/6,0/18
KSSASYLEESRNKNSVA,EASTRES,QQYHRLPLS,-0.34,6/6,0/18
KMSPSELYQDRNKNAVA,QASQRES,QQYHRLPLS,-0.30,6/6,1/18
KLPQEDWYQSRMKNSVA,DASTRES,QQYHRLPLS,-0.27,6/6,0/18
KVSISEPYEERNKNSVA,NASQRMS,QQYHRLPLS,-0.26,6/6,2/18
YLFNQRSYGDADQRNIA,NGRMRED,QQYARLPLT,-0.25,6/6,0/18
KLSQSDLYESRNKNSVA,EASTRLS,QQYHRLPLS,-0.15,6/6,2/18

The authors averaged sequences with at least three values out of six and counted those with two or fewer as poor binders.
Empty control strains, which show no peptide, gave a signal in 4% of pairings with all light chain designs; the median was 2.64 and 95% of these signals were weaker than 1.59. No background was subtracted. For each scFv, signals with the empty controls are counted beside the result.
The range of this assay differs from that of the first round, and the authors advise against merging the two.